Patent US12433883B2, “Covalent modification and controlled delivery of mu opioid receptor antagonists” (Allegheny Singer Research Institute, priority 2019, dated 2025)

Tested on: fentanyl-induced analgesia in mice
Assay: Hot plate assay, block of fentanyl-induced analgesia
Settings: free naloxone 10 mg/kg, fentanyl 0.2 mg/kg

`C=CCN1CC[C@]23c4c5ccc(O)c4O[C@H]2C(=O)CC[C@@]3(O)[C@H]1C5` [free naloxone, naloxone] was tested, and the “effect on fentanyl analgesia in hot plate assay” value was “acutely block fentanyl (0.2 mg/kg) analgesia”.
